These results are taken from patent publication US10239887B2, “Positive allosteric modulators of the muscarinic acetylcholine receptor M4” (Vanderbilt University, priority 2016, dated 2019).

Molecules are shown by their SMILES.

A short description of data set [1]: fraction unbound in plasma, rat.
Data set [2] in a line: fraction unbound in plasma, human.
The target of data set [3] is human adenosine A2a (Homo sapiens, UniProt P29274). Description: Eurofins LeadProfilingScreen, adenosine A2a. The note with it: 10 μM (binding).
Data set [4] can be described thus: in vivo DMPK, rat.

On to `Cc1nnc2sc3c(NCc4ccc(C(C)(C)O)cc4)ncnc3c2c1C` [Compound 76, 2-[4-[[(3,4-Dimethylpyrimido[4′,5′:4,5]thieno[2,3-c]pyridazin-8-yl)amino]methyl]phenyl]propan-2-ol], for which, in data set [1], the Rat Fu (plasma) turned out to be 0.02. The compound also gave a Human Fu (plasma) in data set [2] of 0.007. Besides, the “inhibition of human adenosine A2a” value in data set [3] is 50%. The compound further registered a Rat brain: plasma Kp, uu in data set [4] of 0.21.
